# Where two headings read alike, the source gives them in different places.
# Assays:
# [1] = biological target: mammalian 20S proteasome (bovine liver) (bovine (purified from bovine liver))
# [2] = biological target: mammalian 20S proteasome (bovine liver) (bovine (purified from bovine liver)); remark: listed apart in the source
substance,measurement,setting,value
intermediate-sized Aβ oligomers (Aβ-iO) (from UniProt P05067 672-713) (complex),IC50 of 20S proteasome activity with up to 5 μM Aβ-iO (Fig. 1d),[1],200 nM
same,IC50 of 20S proteasome activity with up to 5 μM Aβ-iO (Fig. 1d),[2],250 nM

# Reference: PMC5854577, “A common mechanism of proteasome impairment by neurodegenerative disease-associated oligomers” (Nature Communications, 2018)
